Biological target: D(2) dopamine receptor (Rattus norvegicus, UniProt P61169)
Assay: Binding affinity against dopamine D2 receptor in rat brain synaptic membrane using [3H]-spiperone as radioligand
Format: cell membranes

Sequences of proteins named here, by UniProt entry; tags and fusion partners are left off.
UniProt P61169, whole entry: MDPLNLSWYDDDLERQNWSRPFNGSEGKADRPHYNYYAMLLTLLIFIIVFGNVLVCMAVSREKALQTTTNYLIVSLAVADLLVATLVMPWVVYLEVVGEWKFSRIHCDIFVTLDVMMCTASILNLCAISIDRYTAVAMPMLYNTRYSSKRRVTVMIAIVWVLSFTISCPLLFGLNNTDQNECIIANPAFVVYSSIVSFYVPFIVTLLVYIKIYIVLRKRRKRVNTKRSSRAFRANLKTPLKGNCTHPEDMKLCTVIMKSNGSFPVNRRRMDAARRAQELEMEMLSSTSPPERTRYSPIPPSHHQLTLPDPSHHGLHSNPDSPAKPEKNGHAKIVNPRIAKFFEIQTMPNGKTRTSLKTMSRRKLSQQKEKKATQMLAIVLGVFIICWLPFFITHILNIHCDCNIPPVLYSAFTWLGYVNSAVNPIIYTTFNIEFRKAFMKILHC

**Q.** `COc1cc(N)c(Cl)cc1C(=O)NC1CCCCN(C)C1` (stereo unspecified) was tested. Which IC50 did it give?
**A.** 230 nM
